# Conditions: rat
substance,measurement,setting,value
insulin,peak of insulin appearance in the blood,"insulin infused through device, day 28 post implantation, same amount of insulin as day 5",shifts to the left (faster)
same,insulin release kinetics,insulin infused through port of implanted device after vasculature formed around it (28 days post-transplant),better
